The text below walks through data of patent publication US20120121591A1 (priority 2009, published 2012).

Sequences of proteins named here, by UniProt entry; tags and fusion partners are left off.
UniProt P22001, whole entry: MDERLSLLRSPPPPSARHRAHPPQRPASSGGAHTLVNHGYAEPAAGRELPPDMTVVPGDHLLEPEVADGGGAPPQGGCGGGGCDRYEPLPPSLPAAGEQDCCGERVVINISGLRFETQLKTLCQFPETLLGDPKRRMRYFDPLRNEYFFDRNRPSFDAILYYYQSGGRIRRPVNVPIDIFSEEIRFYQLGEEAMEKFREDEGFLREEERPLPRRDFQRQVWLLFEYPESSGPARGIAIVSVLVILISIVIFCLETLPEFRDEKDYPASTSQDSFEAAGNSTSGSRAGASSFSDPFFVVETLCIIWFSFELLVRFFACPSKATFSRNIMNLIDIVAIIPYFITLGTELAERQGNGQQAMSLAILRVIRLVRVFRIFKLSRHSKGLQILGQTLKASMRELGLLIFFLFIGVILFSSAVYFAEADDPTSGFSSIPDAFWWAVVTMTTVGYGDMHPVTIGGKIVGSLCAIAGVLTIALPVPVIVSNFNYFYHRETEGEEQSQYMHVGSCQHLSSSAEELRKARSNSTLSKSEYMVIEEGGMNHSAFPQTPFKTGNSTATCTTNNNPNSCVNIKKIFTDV

As usually defined, the IC50 is the midpoint of a concentration-inhibition curve.

Test [1] has as its system IL-2 secretion from T cells in human whole blood. In kind it is cell-based. To be noted: read-out: WB (IL-2) IC50 (nM, Avg).
The target in test [2] is hKv1.3 (Homo sapiens, UniProt P22001). As to the kind of experiment: cell-based. As to conditions: Kv1.3 (IWQ) IC50 (nM, Avg).

Take `CC[C@H](C)[C@@H]1NC(=O)[C@@H](NC(=O)[C@H](CO)NC(=O)[C@@H](N)CCCNC(=N)N)CSSC[C@@H](C(=O)O)NC(=O)[C@H]([C@@H](C)O)NC(=O)[C@H](Cc2cccc3ccccc23)NC(=O)[C@@H]2CSSC[C@@H]3NC(=O)[C@H](CCC(N)=O)NC(=O)[C@H](Cc4ccccc4)NC(=O)[C@H](C)NC(=O)[C@H]([C@@H](C)O)NC(=O)[C@H](CSSC[C@H](NC(=O)[C@H](Cc4ccccc4)NC(=O)[C@H](CO)NC(=O)[C@H](CC(C)C)NC(=O)[C@H](CCCNC(=N)N)NC(=O)[C@H](Cc4ccc(O)cc4)NC(=O)[C@H](CCCCN)NC(=O)[C@H](CCSC)NC(=O)[C@H](CO)NC(=O)[C@H](Cc4c[nH]cn4)NC(=O)[C@H](CCCCN)NC3=O)C(=O)N[C@@H](CCCNC(=N)N)C(=O)N[C@@H](CCCCN)C(=O)N[C@@H]([C@@H](C)O)C(=O)N2)NC(=O)[C@H](CCCNC(=N)N)NC(=O)[C@H](CO)NC(=O)[C@H](CCCCN)NC(=O)[C@@H]2CCCN2C(=O)[C@H]([C@@H](C)CC)NC(=O)[C@H]([C@@H](C)O)NC(=O)[C@H](CC(=O)O)NC1=O` [[1-Nal33]ShK]: in test [1], the IC50 was 0.439 nM. On to `CC[C@H](C)[C@@H]1NC(=O)[C@@H](NC(=O)[C@H](CO)NC(=O)[C@@H](N)CCCNC(=N)N)CSSC[C@@H](C(=O)O)NC(=O)[C@H]([C@@H](C)O)NC(=O)CNC(=O)[C@@H]2CSSC[C@@H]3NC(=O)[C@H](CCC(N)=O)NC(=O)[C@H](Cc4ccccc4)NC(=O)[C@H](C)NC(=O)[C@H]([C@@H](C)O)NC(=O)[C@H](CSSC[C@H](NC(=O)[C@H](Cc4ccccc4)NC(=O)[C@H](CO)NC(=O)[C@H](CC(C)C)NC(=O)[C@H](CCC(=O)O)NC(=O)[C@H](Cc4ccc(O)cc4)NC(=O)[C@H](CCCCN)NC(=O)[C@H](CCSC)NC(=O)[C@H](CO)NC(=O)[C@H](Cc4c[nH]cn4)NC(=O)[C@H](CCCCN)NC3=O)C(=O)N[C@@H](CCCNC(=N)N)C(=O)N[C@@H](CCCCN)C(=O)N[C@@H]([C@@H](C)O)C(=O)N2)NC(=O)[C@H](CCCNC(=N)N)NC(=O)[C@H](CO)NC(=O)[C@H](CCCCN)NC(=O)[C@@H]2CCCN2C(=O)[C@H]([C@@H](C)CC)NC(=O)[C@H]([C@@H](C)O)NC(=O)[C@H](CC(=O)O)NC1=O` [[Glu24]ShK], for which the IC50 in test [1] is 1.11 nM; in test [2] it was 0.26 nM. In test [2], `CC[C@H](C)[C@@H]1NC(=O)[C@@H](NC(=O)[C@H](CO)NC(=O)[C@@H](N)CCCNC(=N)N)CSSC[C@@H](C(=O)O)NC(=O)[C@H]([C@@H](C)O)NC(=O)[C@H](CCC(=O)O)NC(=O)[C@@H]2CSSC[C@@H]3NC(=O)[C@H](CCC(N)=O)NC(=O)[C@H](Cc4ccccc4)NC(=O)[C@H](C)NC(=O)[C@H]([C@@H](C)O)NC(=O)[C@H](CSSC[C@H](NC(=O)[C@H](Cc4ccccc4)NC(=O)[C@H](CO)NC(=O)[C@H](CC(C)C)NC(=O)[C@H](CCCNC(=N)N)NC(=O)[C@H](Cc4ccc(O)cc4)NC(=O)[C@H](CCCCN)NC(=O)[C@H](CCSC)NC(=O)[C@H](CO)NC(=O)[C@H](Cc4cnc[nH]4)NC(=O)[C@H](CCCCN)NC3=O)C(=O)N[C@@H](CCCNC(=N)N)C(=O)N[C@@H](CCCCN)C(=O)N[C@@H]([C@@H](C)O)C(=O)N2)NC(=O)[C@H](CCCNC(=N)N)NC(=O)[C@H](CO)NC(=O)[C@H](CCCCN)NC(=O)[C@@H]2CCCN2C(=O)[C@H]([C@@H](C)CC)NC(=O)[C@H]([C@@H](C)O)NC(=O)[C@H](CC(=O)O)NC1=O` [[Glu33]ShK] registered an IC50 of 0.06 nM. Still for that read-out and setting: the same measure for `CC[C@H](C)[C@@H]1NC(=O)[C@H]([C@@H](C)O)NC(=O)[C@H](CC(=O)O)NC(=O)[C@H](CCCCN)NC(=O)[C@@H](NC(=O)[C@H](CO)NC(=O)[C@@H](N)CCCNC(=N)N)CSSC[C@@H](C(=O)O)NC(=O)[C@H]([C@@H](C)O)NC(=O)CNC(=O)[C@@H]2CSSC[C@@H]3NC(=O)[C@H](CCC(N)=O)NC(=O)[C@H](Cc4ccccc4)NC(=O)[C@H](C)NC(=O)[C@H]([C@@H](C)O)NC(=O)[C@H](CSSC[C@H](NC(=O)[C@H](Cc4ccccc4)NC(=O)[C@H](CO)NC(=O)[C@H](CC(C)C)NC(=O)[C@H](CCCNC(=N)N)NC(=O)[C@H](Cc4ccc(O)cc4)NC(=O)[C@H](CCCCN)NC(=O)[C@H](CCSC)NC(=O)[C@H](CO)NC(=O)[C@H](Cc4cnc[nH]4)NC(=O)[C@H](CCCCN)NC3=O)C(=O)N[C@@H](CCCNC(=N)N)C(=O)N[C@@H](CCCCN)C(=O)N[C@@H]([C@@H](C)O)C(=O)N2)NC(=O)[C@H](CCCNC(=N)N)NC(=O)[C@H](CO)NC(=O)[C@H](CCCCN)NC(=O)[C@@H]2CCCN2C1=O` [[Lys4]ShK]: 0.153 nM. In the case of `CC[C@H](C)[C@@H]1NC(=O)[C@@H](NC(=O)[C@H](CO)NC(=O)[C@@H](N)CCCNC(=N)N)CSSC[C@@H](C(=O)O)NC(=O)[C@H]([C@@H](C)O)NC(=O)CNC(=O)[C@@H]2CSSC[C@@H]3NC(=O)[C@H](CCC(N)=O)NC(=O)[C@H](Cc4ccccc4)NC(=O)[C@H](C)NC(=O)[C@H]([C@@H](C)O)NC(=O)[C@H](CSSC[C@H](NC(=O)[C@H](Cc4ccccc4)NC(=O)[C@H](CO)NC(=O)[C@H](CC(C)C)NC(=O)[C@H](CCCNC(=N)N)NC(=O)[C@H](Cc4ccc(O)cc4)NC(=O)[C@H](CCCCN)NC(=O)[C@H](CCSC)NC(=O)[C@H](CO)NC(=O)[C@H](Cc4c[nH]cn4)NC(=O)[C@H](CCCCN)NC3=O)C(=O)N[C@@H](CCCNC(=N)N)C(=O)N[C@@H](CCCCN)C(=O)N[C@@H]([C@@H](C)O)C(=O)N2)NC(=O)[C@H](CCCNC(=N)N)NC(=O)[C@H](CO)NC(=O)[C@H](CCCCN)NC(=O)[C@H](CCCCN)NC(=O)[C@H]([C@@H](C)CC)NC(=O)[C@H]([C@@H](C)O)NC(=O)[C@H](CC(=O)O)NC1=O` [[Lys8]ShK], the IC50 in test [1] is 0.154 nM; in test [2] it was 0.083 nM.

For the compound `CC[C@H](C)[C@@H]1NC(=O)[C@@H](NC(=O)[C@H](CO)NC(=O)[C@@H](N)CCCNC(=N)N)CSSC[C@@H](C(=O)O)NC(=O)[C@H]([C@@H](C)O)NC(=O)CNC(=O)[C@@H]2CSSC[C@@H]3NC(=O)[C@H](CCC(N)=O)NC(=O)[C@H](Cc4ccccc4)NC(=O)[C@H](C)NC(=O)[C@H]([C@@H](C)O)NC(=O)[C@H](CSSC[C@H](NC(=O)[C@H](Cc4ccccc4)NC(=O)[C@H](CO)NC(=O)[C@H](CC(C)C)NC(=O)[C@H](CCCCN)NC(=O)[C@H](Cc4ccc(O)cc4)NC(=O)[C@H](CCCCN)NC(=O)[C@H](CCSC)NC(=O)[C@H](CO)NC(=O)[C@H](Cc4cnc[nH]4)NC(=O)[C@H](CCCCN)NC3=O)C(=O)N[C@@H](CCCNC(=N)N)C(=O)N[C@@H](CCCCN)C(=O)N[C@@H]([C@@H](C)O)C(=O)N2)NC(=O)[C@H](CCCNC(=N)N)NC(=O)[C@H](CO)NC(=O)[C@H](CCCCN)NC(=O)[C@@H]2CCCN2C(=O)[C@H]([C@@H](C)CC)NC(=O)[C@H]([C@@H](C)O)NC(=O)[C@H](CC(=O)O)NC1=O` [[Lys24]ShK], the half-inhibitory concentration (IC50) in test [2] was found to be 0.067 nM.

With `CC[C@H](C)[C@@H]1NC(=O)[C@@H](NC(=O)[C@H](CO)NC(=O)[C@@H](N)CCCNC(=N)N)CSSC[C@@H](C(=O)O)NC(=O)[C@H]([C@@H](C)O)NC(=O)[C@H](CCCCN)NC(=O)[C@@H]2CSSC[C@@H]3NC(=O)[C@H](CCC(N)=O)NC(=O)[C@H](Cc4ccccc4)NC(=O)[C@H](C)NC(=O)[C@H]([C@@H](C)O)NC(=O)[C@H](CSSC[C@H](NC(=O)[C@H](Cc4ccccc4)NC(=O)[C@H](CO)NC(=O)[C@H](CC(C)C)NC(=O)[C@H](CCCNC(=N)N)NC(=O)[C@H](Cc4ccc(O)cc4)NC(=O)[C@H](CCCCN)NC(=O)[C@H](CCSC)NC(=O)[C@H](CO)NC(=O)[C@H](Cc4c[nH]cn4)NC(=O)[C@H](CCCCN)NC3=O)C(=O)N[C@@H](CCCNC(=N)N)C(=O)N[C@@H](CCCCN)C(=O)N[C@@H]([C@@H](C)O)C(=O)N2)NC(=O)[C@H](CCCNC(=N)N)NC(=O)[C@H](CO)NC(=O)[C@H](CCCCN)NC(=O)[C@@H]2CCCN2C(=O)[C@H]([C@@H](C)CC)NC(=O)[C@H]([C@@H](C)O)NC(=O)[C@H](CC(=O)O)NC1=O` [[Lys33]ShK], the 50% inhibitory concentration (IC50) in test [1] came to 0.218 nM; in test [2], 0.122 nM.

With `CCCC[C@@H]1NC(=O)[C@H](CO)NC(=O)[C@H](Cc2cnc[nH]2)NC(=O)[C@H](CCCCN)NC(=O)[C@@H]2CSSC[C@@H]3NC(=O)[C@H]([C@@H](C)O)NC(=O)[C@H](CCCCN)NC(=O)[C@H](CCCNC(=N)N)NC(=O)[C@H](CSSC[C@H](NC(=O)[C@H](CCCNC(=N)N)NC(=O)[C@H](CO)NC(=O)[C@H](CCCCN)NC(=O)[C@@H]4CCCN4C(=O)[C@H]([C@@H](C)CC)NC(=O)[C@H]([C@@H](C)O)NC(=O)[C@H](CC(=O)O)NC(=O)[C@H]([C@@H](C)CC)NC(=O)[C@@H](NC(=O)[C@H](CO)NC(=O)[C@@H](N)CCCNC(=N)N)CSSC[C@@H](C(=O)O)NC(=O)[C@H]([C@@H](C)O)NC(=O)CNC3=O)C(=O)N[C@@H]([C@@H](C)O)C(=O)N[C@@H](C)C(=O)N[C@@H](Cc3ccccc3)C(=O)N[C@@H](CCC(N)=O)C(=O)N2)NC(=O)[C@H](Cc2ccccc2)NC(=O)[C@H](CO)NC(=O)[C@H](CC(C)C)NC(=O)[C@H](CCCNC(=N)N)NC(=O)[C@H](Cc2ccc(O)cc2)NC(=O)[C@H](CCCCN)NC1=O` [[N1e21]ShK], the IC50 in test [2] came out at 0.04 nM.

For the compound `CC[C@H](C)[C@@H]1NC(=O)[C@@H](NC(=O)[C@H](CO)NC(=O)[C@@H](N)CCCNC(=N)N)CSSC[C@@H](C(=O)O)NC(=O)[C@H]([C@@H](C)O)NC(=O)CNC(=O)[C@@H]2CSSC[C@@H]3NC(=O)[C@H](CCCN)NC(=O)[C@H](Cc4ccccc4)NC(=O)[C@H](C)NC(=O)[C@H]([C@@H](C)O)NC(=O)[C@H](CSSC[C@H](NC(=O)[C@H](Cc4ccccc4)NC(=O)[C@H](CO)NC(=O)[C@H](CC(C)C)NC(=O)[C@H](CCCNC(=N)N)NC(=O)[C@H](Cc4ccc(O)cc4)NC(=O)[C@H](CCCCN)NC(=O)[C@H](CCSC)NC(=O)[C@H](CO)NC(=O)[C@H](Cc4cnc[nH]4)NC(=O)[C@H](CCCCN)NC3=O)C(=O)N[C@@H](CCCNC(=N)N)C(=O)N[C@@H](CCCCN)C(=O)N[C@@H]([C@@H](C)O)C(=O)N2)NC(=O)[C@H](CCCNC(=N)N)NC(=O)[C@H](CO)NC(=O)[C@H](CCCCN)NC(=O)[C@@H]2CCCN2C(=O)[C@H]([C@@H](C)CC)NC(=O)[C@H]([C@@H](C)O)NC(=O)[C@H](CC(=O)O)NC1=O` [[Orn16]ShK], the IC50 in test [2] was 0.14 nM.
